The numbers were not newly measured in publication PMC6161897, “The novel NADPH oxidase 4 selective inhibitor GLX7013114 counteracts human islet cell death in vitro” (PLoS ONE, 2018), which cites them from elsewhere.

For orientation: IC50 means the concentration at which inhibition is half-maximal.

This series addresses T1, Nox1 (Homo sapiens, UniProt Q9Y5S8).
T1 construct: host or cells: CHO
T1 sequence (Q9Y5S8 1-564): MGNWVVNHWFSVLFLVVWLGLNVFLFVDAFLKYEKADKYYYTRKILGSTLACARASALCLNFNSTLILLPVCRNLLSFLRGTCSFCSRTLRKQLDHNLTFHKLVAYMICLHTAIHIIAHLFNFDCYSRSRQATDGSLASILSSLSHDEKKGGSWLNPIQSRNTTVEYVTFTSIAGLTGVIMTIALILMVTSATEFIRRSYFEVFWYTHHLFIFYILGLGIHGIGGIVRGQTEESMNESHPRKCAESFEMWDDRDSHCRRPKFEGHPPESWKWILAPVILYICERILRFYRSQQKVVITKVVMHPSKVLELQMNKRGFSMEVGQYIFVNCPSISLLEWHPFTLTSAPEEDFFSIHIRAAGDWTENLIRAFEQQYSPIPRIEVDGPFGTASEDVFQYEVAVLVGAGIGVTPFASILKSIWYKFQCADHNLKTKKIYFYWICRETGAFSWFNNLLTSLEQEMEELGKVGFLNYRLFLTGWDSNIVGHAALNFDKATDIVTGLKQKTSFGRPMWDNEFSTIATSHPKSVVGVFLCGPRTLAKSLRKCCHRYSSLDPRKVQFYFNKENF
T1 sequence (P13498 2-195 partner limits assumed): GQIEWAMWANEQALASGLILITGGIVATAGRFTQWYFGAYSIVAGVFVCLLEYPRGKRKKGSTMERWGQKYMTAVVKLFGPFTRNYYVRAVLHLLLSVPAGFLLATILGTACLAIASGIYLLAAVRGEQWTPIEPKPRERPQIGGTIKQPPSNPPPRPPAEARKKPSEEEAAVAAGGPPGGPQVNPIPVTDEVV
As to conditions: read-out: Nox1 IC50; cited from earlier work.

As to `c1ccc2c(c1)[I+]c1ccccc1-2` [DPI, diphenyleneiodoniumchloride], the IC50 is 0.2 µM.
